Target: Human recombinant cathepsin K (Homo sapiens, UniProt P43235)
Assay: In vitro cathepsin Ki inhibition measurements
Assay type: biochemical
Settings: read-out: Ki (nM) vs Human Cathepsin K, prior art WO-A-02057270 examples

The chains behind the UniProt entries cited, without tags or fusion partners. Residues count along the entry.
UniProt P43235, 115-329 limits assumed: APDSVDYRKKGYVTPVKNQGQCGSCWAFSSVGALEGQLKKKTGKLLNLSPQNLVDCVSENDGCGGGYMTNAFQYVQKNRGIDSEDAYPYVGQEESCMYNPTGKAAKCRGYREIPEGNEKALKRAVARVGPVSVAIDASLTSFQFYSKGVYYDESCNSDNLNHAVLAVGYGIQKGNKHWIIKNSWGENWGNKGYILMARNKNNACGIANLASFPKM

Structure (SMILES)	Ki
CC(C)C[C@H](NC(=O)c1csc(-c2cccnc2)n1)C(=O)N1CC[C@H]2OCC(=O)[C@H]21	> 2000 nM
O=C(N[C@@H](Cc1ccccc1)C(=O)N1CC[C@H]2OCC(=O)[C@H]21)c1ccoc1	> 10000 nM
CC(C)(C)c1ccc(C(=O)N[C@@H](Cc2cccc(O)c2)C(=O)N2CC[C@H]3OCC(=O)[C@H]32)cc1	> 8000 nM
CC(C)C[C@H](NC(=O)c1cncc(-c2cccs2)c1)C(=O)N1CC[C@H]2OCC(=O)[C@H]21	> 3000 nM
